Literature values as cited in patent publication US12606918B2, “Production of sanitizing fluid using in situ electrolysis” (APPLIED PHAGE GMBH, priority 2024, dated 2026).

Conditions: as ClO3^−

For `[O-][Cl+2]([O-])O` [chlorate], the “Arfd (acute reference dose)” value is given as 0.0024 mg/kg BW·day.
